According to publication PMC5997768 (2018):

Columns and labels:
rats = assay: Defecation (constipation); details: s.c.; fentanyl 30 µg/kg, morphine all doses 1–16 mg/kg, FF3 highest dose 150 µg/kg
healthy rats [1] = assay: Locomotor activity; details: s.c.; fentanyl 30 µg/kg, morphine 16 mg/kg (highest dose), FF3 150 µg/kg (highest dose)
healthy rats [2] = assay: Pulse oximetry: heart rate, oxygen saturation, respiratory rate; details: s.c.; FF3 150 µg/kg (highest dose), 5–15 min; morphine all doses 8–64 mg/kg, entire period 60 min
naïve rats = assay: Motor coordination (accelerating Rota-Rod); details: s.c.; fentanyl 30 µg/kg, morphine all doses 2–16 mg/kg, FF3 two highest doses 60–150 µg/kg
healthy rats [3] = assay: Conditioned place preference (CPP); details: s.c.; fentanyl 30 µg/kg, morphine 2–16 mg/kg (most doses), FF3 all doses 30–150 µg/kg

Compound: CN1CC[C@]23c4c5ccc(O)c4O[C@H]2[C@@H](O)C=C[C@H]3[C@H]1C5 [Morphine]
- Constipation, number of defecations in 1 h (rats): reduced defecation
- Locomotor activity, distance traveled within 30 min (healthy rats [1]): decreased
- Oxygen saturation (healthy rats [2]): impaired
- Motor coordination on accelerating Rota-Rod (naïve rats): Impaired motor coordination
- Conditioned place preference (healthy rats [3]): produced preference for the drug-associated compartment
